Assay [1] deals with MCA 205 pulmonary metastases. Details: species or system C57BL/6 mice. As to conditions: mouse.
Assay [2] has as its system MCA 207 pulmonary metastases. Set-up: species or system mice. As to conditions: mouse, in vivo.

“And” between values parts separate entries of the source, which are not always exact repeats. Identical values can stand only once.

“IL-2: interleukin 2, given alone in vivo as control”: the “tumor killing in vivo” value in assay [1] is reported as “ineffective”. Also, the “Mean No. Metastases (SE)” value in assay [1] (in vivo) was 250 and 248. Further, the “Mean number of Metastases (SE)” value in assay [1] (in vivo) was 250; in assay [2], 200.

The record behind these values is patent US6340461B1 (priority 1996, dated 2002).
